Experimental data reported in PMC11093982, “Structural and mechanistic insights into Quinolone Synthase to address its functional promiscuity” (Communications Biology, 2024).

By UniProt entry, the sequences of proteins in these tests, tags left out.
UniProt M1HE54, entry or part of it: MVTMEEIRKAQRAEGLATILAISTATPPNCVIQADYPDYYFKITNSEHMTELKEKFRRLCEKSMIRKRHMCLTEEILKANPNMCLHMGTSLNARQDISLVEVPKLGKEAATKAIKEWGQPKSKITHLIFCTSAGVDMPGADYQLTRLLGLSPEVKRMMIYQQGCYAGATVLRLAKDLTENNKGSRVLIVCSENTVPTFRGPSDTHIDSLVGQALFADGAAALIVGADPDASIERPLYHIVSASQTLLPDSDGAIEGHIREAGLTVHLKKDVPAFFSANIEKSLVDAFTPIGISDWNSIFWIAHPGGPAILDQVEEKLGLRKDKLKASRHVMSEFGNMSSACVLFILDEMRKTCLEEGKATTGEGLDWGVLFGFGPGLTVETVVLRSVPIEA

Target: AmQNS (quinolone synthase) (Aegle marmelos, UniProt M1HE54)
Assay: Surface plasmon resonance (SPR) AmQNS-substrate interaction studies
Type: binding
Description: ProteOn XPR array system[21] and ‘GLM’ sensor chip was used for the SPR interaction studies. […] Here, amine coupling works, where the amine groups present in the AmQNS covalently bind to the chemically activated carboxyl groups of the dextran molecules. Channel L3 and L4 were used for immobilization of protein while L2 was used as reference. The extent of non-specific interactions was eliminated or reduced by optimizing the buffer conditions. […] N-methylanthraniloyl-CoA was purchased from TransMIT (Plant MetaChem, www.plantmetachem.com), whereas all other substrates were purchased from Sigma-Aldrich (www.sigmaaldrich.com).
Following AmQNS immobilization and its stability screening, all binding studies were done at 30 °C. […] The sensogram was prepared by processing the data (after subtraction of L2 responses (reference channel). Baseline drift due to the bulk refractive index change, non-specific binding, matrix effects and injection noise were also corrected using the reference spots. Further, the responses obtained from the AmQNS-small molecular interactions at different concentrations were fitted using the Langmuir 1:1 biomolecular interaction model using the ProteOn Manager software version 3.1.0.6 (Bio-Rad, USA). Equilibrium dissociation constants (KD) were calculated from the ratio of the association and dissociation rates.

Work on CCCCCCCCCCCCCC(=O)SCCNC(=O)CCNC(=O)[C@H](O)C(C)(C)COP(=O)(O)OP(=O)(O)OC[C@H]1O[C@@H](n2cnc3c(N)ncnc32)[C@H](O)[C@@H]1OP(=O)(O)O [Myristoyl-CoA] yielded a Kd of 310 nM.
